Tests used:
D(3) dopamine receptor = D(3) dopamine receptor (Rattus norvegicus, UniProt P19020); parameters: species or system Tissue
D(1A) dopamine receptor = D(1A) dopamine receptor (Rattus norvegicus, UniProt P18901)
[1] = target: 5-hydroxytryptamine receptor 2A (Rattus norvegicus, UniProt P14842)

Chains of the proteins cited; added tags and fusions are not shown.
UniProt P19020, whole entry: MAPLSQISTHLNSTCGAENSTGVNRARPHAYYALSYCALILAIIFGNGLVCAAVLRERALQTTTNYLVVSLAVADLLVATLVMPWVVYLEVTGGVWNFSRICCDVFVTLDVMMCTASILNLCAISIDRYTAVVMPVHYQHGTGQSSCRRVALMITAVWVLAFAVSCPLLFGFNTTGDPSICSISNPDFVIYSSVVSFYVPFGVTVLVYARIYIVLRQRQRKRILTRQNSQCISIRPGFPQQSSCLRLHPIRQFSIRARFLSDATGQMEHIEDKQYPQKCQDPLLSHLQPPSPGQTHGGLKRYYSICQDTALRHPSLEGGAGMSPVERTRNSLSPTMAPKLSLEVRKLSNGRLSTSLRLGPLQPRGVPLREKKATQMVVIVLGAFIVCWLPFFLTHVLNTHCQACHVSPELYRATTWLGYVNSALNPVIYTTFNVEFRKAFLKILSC
UniProt P18901, whole entry: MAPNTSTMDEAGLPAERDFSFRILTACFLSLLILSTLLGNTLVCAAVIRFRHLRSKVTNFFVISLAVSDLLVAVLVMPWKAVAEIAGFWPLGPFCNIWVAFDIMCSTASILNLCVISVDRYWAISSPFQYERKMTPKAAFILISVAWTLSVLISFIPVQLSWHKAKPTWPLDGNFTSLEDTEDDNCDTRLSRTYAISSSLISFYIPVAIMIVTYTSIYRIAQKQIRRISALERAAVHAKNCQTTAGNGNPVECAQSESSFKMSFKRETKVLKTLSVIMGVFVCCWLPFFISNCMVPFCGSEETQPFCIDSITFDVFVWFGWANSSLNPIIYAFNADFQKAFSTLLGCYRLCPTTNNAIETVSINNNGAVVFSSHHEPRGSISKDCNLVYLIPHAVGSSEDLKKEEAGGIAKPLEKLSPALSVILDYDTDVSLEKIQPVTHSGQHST
UniProt P14842, whole entry: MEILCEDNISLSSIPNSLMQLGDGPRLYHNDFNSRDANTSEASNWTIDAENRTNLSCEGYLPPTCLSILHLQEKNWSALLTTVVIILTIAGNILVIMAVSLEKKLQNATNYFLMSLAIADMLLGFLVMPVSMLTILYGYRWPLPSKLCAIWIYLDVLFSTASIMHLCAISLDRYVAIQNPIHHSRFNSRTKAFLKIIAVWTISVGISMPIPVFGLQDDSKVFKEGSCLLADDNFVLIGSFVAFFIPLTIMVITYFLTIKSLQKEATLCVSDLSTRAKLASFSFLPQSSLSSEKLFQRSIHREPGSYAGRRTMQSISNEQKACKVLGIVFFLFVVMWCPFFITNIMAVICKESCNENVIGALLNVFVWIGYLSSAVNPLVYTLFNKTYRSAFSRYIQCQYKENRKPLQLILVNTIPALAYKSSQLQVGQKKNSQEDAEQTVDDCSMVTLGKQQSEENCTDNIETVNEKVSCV

CN1CCN(C2Cn3cccc3Sc3ccc(Br)cc32)CC1 (racemic)
Ki (D(3) dopamine receptor): 3.6 nM

CN1CCN([C@@H]2Cn3cccc3Sc3ccc(Cl)cc32)CC1
Ki (D(1A) dopamine receptor): 16.4 nM

CN1CCN(C2Cn3cccc3Sc3ccccc32)CC1 (racemic)
Ki (D(1A) dopamine receptor): 216 nM

CN1CCN(C2Cn3cccc3Sc3ccc(F)cc32)CC1 (racemic)
Ki [1]: 5.13 nM

Reference: ChEMBL document CHEMBL1135802, “Pyrrolo[1,3]benzothiazepine-based atypical antipsychotic agents. Synthesis, structure-activity relationship, molecular modeling, and biological studies” (J Med Chem, 2002)
